Target: Coagulation factor X (Homo sapiens, UniProt P00742)

Sequences of proteins named here, by UniProt entry; tags and fusion partners are left off. Residues count along the entry.
UniProt P00742, 41-179 limits assumed: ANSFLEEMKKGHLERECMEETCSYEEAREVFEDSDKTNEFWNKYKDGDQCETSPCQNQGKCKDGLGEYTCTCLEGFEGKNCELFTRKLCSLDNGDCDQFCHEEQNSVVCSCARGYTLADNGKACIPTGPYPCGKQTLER
UniProt P00742, 235-488 limits assumed: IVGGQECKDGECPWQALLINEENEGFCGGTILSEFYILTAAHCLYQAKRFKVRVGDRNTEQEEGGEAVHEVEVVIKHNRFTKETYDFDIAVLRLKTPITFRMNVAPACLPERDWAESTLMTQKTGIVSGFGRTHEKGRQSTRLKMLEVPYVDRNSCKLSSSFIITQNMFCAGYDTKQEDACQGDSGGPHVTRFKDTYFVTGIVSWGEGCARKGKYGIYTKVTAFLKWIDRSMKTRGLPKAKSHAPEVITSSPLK

`CC(C)Nc1ccc(-c2cc(N)cc(N)c2)n(CC(=O)NCc2ccc(C(=N)N)cc2)c1=O` was tested, and the IC50 was over 30 µM.

Reference: ChEMBL document CHEMBL4196003, “The selectivity and bioavailability improvement of novel oral anticoagulants: An overview” (Eur J Med Chem, 2018)
